Assay results: US20200392251A1 (University of California, published 2020)

What was measured:
[1] = molecular target: T1, Aspergillus fumigatus autophagic serine protease 2 (Alp2) (Aspergillus fumigatus, UniProt P87184 136-495); assay: FRET peptide inhibition assay; KI=IC50/(S/Km+1)
T1 construct: range 136-495; Produced active in E. coli periplasm; biotinylated for BLI
T1 sequence: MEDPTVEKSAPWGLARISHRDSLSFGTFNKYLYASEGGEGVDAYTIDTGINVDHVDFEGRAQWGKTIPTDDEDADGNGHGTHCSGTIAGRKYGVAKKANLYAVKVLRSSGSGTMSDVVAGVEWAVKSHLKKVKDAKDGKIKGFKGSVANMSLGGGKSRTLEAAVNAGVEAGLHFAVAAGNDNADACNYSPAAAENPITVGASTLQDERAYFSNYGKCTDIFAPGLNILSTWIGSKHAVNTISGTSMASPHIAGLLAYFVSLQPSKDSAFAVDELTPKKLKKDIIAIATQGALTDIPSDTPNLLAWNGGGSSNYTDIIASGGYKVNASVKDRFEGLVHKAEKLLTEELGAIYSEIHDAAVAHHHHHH

[2] = molecular target: T1, Aspergillus fumigatus autophagic serine …; assay: biolayer interferometry; biotinylated protease on streptavidin sensor, Fab in solution

B1: anti-Alp2 Fab A4A1 (Fab, V domains shown)
VH: EVQLVESGGGLVQPGGSLRLSCAASGFNISSYYIHWVRQAPGKGLEWVASIYSYSSYTYYADSVKGRFTISADTSKNTAYLQMNSLRAGDTAVYYCARFGSWSYAIDYWGQGTLVTVSS
VL: DIQMTQSPSSLSASVGDRVTITCRASQSVSSAVAWYQQKPGKAPKLLIYSASSLYSGVPSRFSGSRSGTDFTLTISSLQPEDFATYYCQQASHLITFGQGTKVEIKR
notes: Fab from a synthetic human Fab library, produced in E. coli periplasm; also called Clone A4A1
In the case of B1, the Ki [1] is reported as 13 nM and the Kd [2] is reported as 11 nM.

B2: anti-Alp2 Fab A4A2 (Fab, V domains shown)
VH: EVQLVESGGGLVQPGGSLRLSCAASGFNLSSSSMHWVRQAPGKGLEWVASIYPSYSYTYYADSVKGRFTISADTSKNTAYLQMNSLRAEDTAVYYCARKTSDQYLLVGGSFFKLRDCCYVMDYWGQGTLVTVSS
VL: DIQMTQSPSSLSASVGDRVTITCRASQSVSSAVAWYQQKPGKAPKLLIYSASSLYSGVPSRFSGSRSGTDFTLTISSLQPEDFATYYCQQASHLITFGQGTKVEIKR
notes: Fab from a synthetic human Fab library, produced in E. coli periplasm; also called Clone A4A2
B2 gave a Ki [1] of 220 nM and a Kd [2] of 110 nM.
